The results in this text go back to patent US10130622B2, “Compounds for treatment of cystic fibrosis” (AbbVie S.à.r.l., priority 2015, dated 2018).

Chains of the proteins cited; added tags and fusions are not shown. A line that says so, or that is headed by a name, gives the form on record, which may keep a tag or linker.
UniProt P13569, other isoform, or with tags, fused parts or gaps I539T/del F508-F508: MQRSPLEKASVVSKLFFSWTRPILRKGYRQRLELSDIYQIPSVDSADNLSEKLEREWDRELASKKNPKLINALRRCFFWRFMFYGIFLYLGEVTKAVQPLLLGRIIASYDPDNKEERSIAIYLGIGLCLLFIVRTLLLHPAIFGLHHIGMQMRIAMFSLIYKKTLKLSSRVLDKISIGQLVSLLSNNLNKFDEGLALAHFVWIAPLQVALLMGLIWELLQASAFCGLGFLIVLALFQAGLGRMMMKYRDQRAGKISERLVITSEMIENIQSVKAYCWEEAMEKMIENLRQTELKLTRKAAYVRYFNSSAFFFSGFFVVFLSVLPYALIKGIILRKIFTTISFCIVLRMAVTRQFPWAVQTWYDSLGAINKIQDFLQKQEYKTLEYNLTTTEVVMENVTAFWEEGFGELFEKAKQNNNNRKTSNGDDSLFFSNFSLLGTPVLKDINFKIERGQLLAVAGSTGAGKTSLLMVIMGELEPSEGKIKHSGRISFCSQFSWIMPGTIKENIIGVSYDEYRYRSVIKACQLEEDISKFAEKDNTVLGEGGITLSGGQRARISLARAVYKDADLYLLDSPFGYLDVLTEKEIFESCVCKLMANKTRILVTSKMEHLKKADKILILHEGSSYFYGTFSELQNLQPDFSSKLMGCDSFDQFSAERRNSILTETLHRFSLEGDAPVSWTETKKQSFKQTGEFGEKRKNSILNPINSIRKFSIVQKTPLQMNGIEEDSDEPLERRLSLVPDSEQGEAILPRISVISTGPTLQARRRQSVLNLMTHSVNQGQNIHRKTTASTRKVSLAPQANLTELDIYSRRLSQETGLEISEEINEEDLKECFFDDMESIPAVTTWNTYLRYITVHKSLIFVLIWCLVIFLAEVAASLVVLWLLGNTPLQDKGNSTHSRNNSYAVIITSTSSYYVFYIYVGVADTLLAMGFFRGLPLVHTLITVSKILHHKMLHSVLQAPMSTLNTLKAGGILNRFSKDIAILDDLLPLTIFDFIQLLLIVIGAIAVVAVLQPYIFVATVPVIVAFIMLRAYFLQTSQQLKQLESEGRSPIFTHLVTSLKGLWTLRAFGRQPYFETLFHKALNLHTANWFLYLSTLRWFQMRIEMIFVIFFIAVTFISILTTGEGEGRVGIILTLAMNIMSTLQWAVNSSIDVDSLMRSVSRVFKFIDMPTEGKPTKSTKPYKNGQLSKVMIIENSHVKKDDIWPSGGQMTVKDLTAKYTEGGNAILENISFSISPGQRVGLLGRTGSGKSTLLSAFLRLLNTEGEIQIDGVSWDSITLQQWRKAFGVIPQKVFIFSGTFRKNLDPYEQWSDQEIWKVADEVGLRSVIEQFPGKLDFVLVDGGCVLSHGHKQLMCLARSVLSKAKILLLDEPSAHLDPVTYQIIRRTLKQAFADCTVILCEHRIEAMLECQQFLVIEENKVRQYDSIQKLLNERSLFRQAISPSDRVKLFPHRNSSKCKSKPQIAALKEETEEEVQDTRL
UniProt P13569, whole entry: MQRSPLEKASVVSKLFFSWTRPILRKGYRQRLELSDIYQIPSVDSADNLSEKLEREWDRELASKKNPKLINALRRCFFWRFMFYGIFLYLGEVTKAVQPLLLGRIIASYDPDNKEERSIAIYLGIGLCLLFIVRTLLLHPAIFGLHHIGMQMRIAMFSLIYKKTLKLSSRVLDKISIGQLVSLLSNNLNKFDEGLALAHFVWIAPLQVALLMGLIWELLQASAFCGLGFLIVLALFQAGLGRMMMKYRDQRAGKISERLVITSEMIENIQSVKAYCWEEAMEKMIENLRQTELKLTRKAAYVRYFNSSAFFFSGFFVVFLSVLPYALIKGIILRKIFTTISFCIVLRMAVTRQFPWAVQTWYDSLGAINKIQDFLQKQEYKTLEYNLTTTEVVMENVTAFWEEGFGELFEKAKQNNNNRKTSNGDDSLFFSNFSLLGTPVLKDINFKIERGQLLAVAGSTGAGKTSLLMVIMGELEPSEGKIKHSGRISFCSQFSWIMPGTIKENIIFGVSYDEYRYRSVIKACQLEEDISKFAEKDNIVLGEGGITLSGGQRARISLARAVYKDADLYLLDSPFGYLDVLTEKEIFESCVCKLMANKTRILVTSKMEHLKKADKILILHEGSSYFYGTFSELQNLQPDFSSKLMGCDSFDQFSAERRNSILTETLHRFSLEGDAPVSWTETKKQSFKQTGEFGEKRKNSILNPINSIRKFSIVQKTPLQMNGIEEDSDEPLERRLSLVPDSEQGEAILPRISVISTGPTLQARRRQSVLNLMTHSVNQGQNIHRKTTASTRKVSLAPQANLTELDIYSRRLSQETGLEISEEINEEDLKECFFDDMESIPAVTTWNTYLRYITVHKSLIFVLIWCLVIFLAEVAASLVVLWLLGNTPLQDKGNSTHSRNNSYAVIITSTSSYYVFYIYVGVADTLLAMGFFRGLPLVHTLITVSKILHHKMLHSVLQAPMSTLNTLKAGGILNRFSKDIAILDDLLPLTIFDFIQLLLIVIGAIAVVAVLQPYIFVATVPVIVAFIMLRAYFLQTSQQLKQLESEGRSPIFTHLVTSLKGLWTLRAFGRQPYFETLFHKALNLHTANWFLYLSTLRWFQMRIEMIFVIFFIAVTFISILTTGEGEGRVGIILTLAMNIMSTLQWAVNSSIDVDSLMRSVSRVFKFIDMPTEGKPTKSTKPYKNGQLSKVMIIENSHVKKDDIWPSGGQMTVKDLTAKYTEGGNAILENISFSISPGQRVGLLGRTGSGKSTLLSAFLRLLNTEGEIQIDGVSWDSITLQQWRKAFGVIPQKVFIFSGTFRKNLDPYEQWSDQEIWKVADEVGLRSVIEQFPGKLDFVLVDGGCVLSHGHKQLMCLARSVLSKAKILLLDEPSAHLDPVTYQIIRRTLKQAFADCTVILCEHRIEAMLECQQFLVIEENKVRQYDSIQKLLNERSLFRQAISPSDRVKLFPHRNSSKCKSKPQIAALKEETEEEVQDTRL

The Kd is the concentration at which binding is half-saturated. Higher therefore signals weaker binding.

The target of assay [1] is F508del/I539T CFTR (Homo sapiens (Human), UniProt P13569, DEL508-508/I539T). Kind of assay: YFP-halide influx assay (YHA) I539T. As to conditions: HEK293, 24 h compound, forskolin 10.67 μM + GLPG1837 0.5 μM; read-out: IEC IC50/EC50 (YHA I539T; head over this column printed as YHA G550E). Type of assay: cell-based.
For assay [2], the target named is WT CFTR (Homo sapiens (Human), UniProt P13569). The experiment in a line: TruBind back scattering interferometry (BSI) direct binding. As to conditions: HEK293 WT CFTR membrane fractions, 4 hours room temperature, one-site binding fit. An excerpt:
Backscattering interferometry (BSI) uses light interaction with a microfluidic channel to measure temporal changes in refractive index (RI) that result from changes in target shape and solvation when molecular complexes form.
The TruBind BSI System employs an optical train comprised of a coherent light source (HeNe laser), a microfluidic interferometric channel (object) and a CMOS array (detector). Upon coherent-laser illumination of a microfluidic channel, a highly modulated fringe pattern is produced perpendicular to the channel. Its bright and dark features shift position with changes in the RI of the sample and monitoring this shift forms the basis of BSI. This information can be used to perform label free equilibrium Kd measurements in complex biological matrices […]
For compound testing HEK293 WT CFTR or HEK293 membrane fractions, at final concentration of 10 μg/mL in 50 mM Tris-HCl pH 7.5, 1 mM EDTA with 1.2% DMSO were mixed 1/1 with a serial dilution of the compound, starting from 10 μM, in 50 mM Tris-HCl pH 7.5, 1 mM EDTA with 1.2% DMSO. […] Samples were measured in quadruplicate in dual channel mode which allows the simultaneous measurement of specific, WT CFTR membranes (assay), as well as unspecific, control membranes (reference). […]

As for `CS(=O)(=O)NC(=O)c1cc(-c2ccc(N3CCC(C#N)CC3)nc2)c2c(C3CCC3)nn(-c3ccccc3)c2n1` [drawing 7], in assay [1], the EC50 turned out to be 496 nM.

`CS(=O)(=O)NC(=O)c1cc(-c2ccc(N3CCC(C#N)CC3)nc2)c2c(C3CCC3)nn(-c3ccccc3)c2n1` [drawing 9] yielded a Kd in assay [2] of 20.2 ± 4.8 nM.
